From patent US12239637B2, “Compositions and methods for treating neurological disorders” (priority 2018, dated 2025) come the findings set out here.

The test system of the data set is rhesus monkeys. In words: Adverse effects of maraviroc treatment: intact side nigrostriatum and drug related side effects. Type of data set: in vivo. As for the experimental part:
Female rhesus monkeys (6-8 years old; 5-7 kg) were used in this study. All animals were singly housed with a 12-h light/dark cycle. Purine monkey chow and water were available ad libitum. Diets were supplemented with fruit during the testing sessions. The study was performed in accordance with federal guidelines of proper animal care and with the approval of the IACUC. Monkeys were intoxicated with MPTP according to protocol described previously (12-16). Briefly, animals were tranquilized with ketamine (10 mg/kg, i.m.) and then maintained on an anesthetic plane with isoflurane (1-2%). The animals were put in the supine position. For each injection, a right-sided incision was made along the medial edge of the sternocleidomastoid muscle. The carotid sheath was opened and the common carotid artery, internal jugular vein, and vagus nerves were identified. The common carotid was exposed below the carotid bifurcation. The external carotid artery was then ligated. A 27 gauge butterfly needle was inserted into the common carotid artery in a direction retrograde to blood flow; for each injection, 20 ml of saline containing 3 mg of MPTP-HCl (Sigma) was infused at a rate of 1.33 ml/min (15 min). After the infusion was completed, 3 ml of saline was delivered, and then the incision was closed. […]

On to maraviroc, for which the “drug related side effect (hair loss, untoward infection, hyperkinesia, psychological disturbance, vomiting, diarrhea)” value (during maraviroc treatment, oral 1 mg/kg body wt/d) is “did not observe any drug related side effect”. The “change in nigral dopaminergic neurons, striatal TH fiber density and striatal neurotransmitters in the intact side” value (intact side, after 30 d of maraviroc treatment) is “did not see any significant change”.
